# Cyclic peptide permeability, from CycPeptMPDB

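Lipid, pH, incubation time, direction and concentration are not recorded in the data file. The list need not hold all peptides of the study. Peptides that the database sets to -10, its floor, are left out.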

PAMPA is the parallel artificial membrane permeability assay, which has no cells and reads passive diffusion. Permeability is given as log10 of P in cm/s; higher (less negative) is more permeable.

compound,PAMPA (log10 cm/s)
CCCCCN1CC(=O)N(C)[C@@H](CC(C)C)C(=O)N[C@@H](CCCC)C(=O)N2CCC[C@@H]2C(=O)N(CCC)CC(=O)N[C@@H](CC(C)C)C1=O,-5.23
CCCC[C@@H]1NC(=O)[C@H](CC(C)C)N(C)C(=O)CN(CCc2cccnc2)C(=O)[C@H](C)NC(=O)CN(CCCOC(C)C)C(=O)[C@H]2CCCN2C1=O,-6.74
CCCC[C@@H]1NC(=O)[C@H](CC(C)C)N(C)C(=O)CN(CCOc2ccccc2)C(=O)[C@H](C)NC(=O)CN(CC(C)C)C(=O)[C@H]2CCCN2C1=O,-5.05
CCCC[C@@H]1NC(=O)[C@H](CC(C)C)N(C)C(=O)CN(CCOc2ccccc2)C(=O)[C@H](CC(C)C)NC(=O)CN(CCN2CCOCC2)C(=O)[C@H]2CCCN2C1=O,-5.60
CCCC[C@@H]1NC(=O)[C@H](CC(C)C)N(C)C(=O)CN(CCOC)C(=O)[C@H](Cc2ccccc2)NC(=O)CN(CCCOC(C)C)C(=O)[C@H]2CCCN2C1=O,-5.08
CCCC[C@@H]1NC(=O)[C@H](CC(C)C)N(C)C(=O)CN(CC2CCOCC2)C(=O)[C@H](CC(C)C)NC(=O)CN(Cc2ccc3c(c2)OCO3)C(=O)[C@H]2CCCN2C1=O,-5.02
CCCC[C@@H]1NC(=O)[C@H](CC(C)C)N(C)C(=O)CN(CCOC)C(=O)[C@H](Cc2ccccc2)NC(=O)CN(Cc2ccccc2Cn2cccn2)C(=O)[C@H]2CCCN2C1=O,-5.26
CCCC[C@@H]1NC(=O)[C@H](CC(C)C)N(C)C(=O)CN(Cc2ccccc2)C(=O)[C@H](CC(C)C)NC(=O)CN(CC(C)C)C(=O)[C@H]2CCCN2C1=O,-5.44
CCCC[C@@H]1NC(=O)[C@H](CC(C)C)N(C)C(=O)CN(CCCc2cnn(C)c2)C(=O)[C@H](C)NC(=O)CN(Cc2ccccc2Cn2cccn2)C(=O)[C@H]2CCCN2C1=O,-6.66
CCCC[C@@H]1NC(=O)[C@H](CC(C)C)N(C)C(=O)CN(CCCN2CCCC2=O)C(=O)[C@H](Cc2ccccc2)NC(=O)CN(Cc2ccccc2Cn2cccn2)C(=O)[C@H]2CCCN2C1=O,-6.01
CCCC[C@@H]1NC(=O)[C@H](CC(C)C)N(C)C(=O)CN(CCc2cccnc2)C(=O)[C@H](C)NC(=O)CN(Cc2ccc3c(c2)OCO3)C(=O)[C@H]2CCCN2C1=O,-6.27
CCCC[C@@H]1NC(=O)[C@H](CC(C)C)N(C)C(=O)CN(CCCc2cnn(C)c2)C(=O)[C@H](Cc2ccc3ccccc3c2)NC(=O)CN(CC(C)C)C(=O)[C@H]2CCCN2C1=O,-5.65
CCCC[C@@H]1NC(=O)[C@H](CC(C)C)N(C)C(=O)CN(CCCc2cnn(C)c2)C(=O)[C@H](C)NC(=O)CN(CCN2CCOCC2)C(=O)[C@H]2CCCN2C1=O,-8.20
CCCC[C@@H]1NC(=O)[C@H](CC(C)C)N(C)C(=O)CN(Cc2ccccc2)C(=O)[C@H](Cc2ccc3ccccc3c2)NC(=O)CN(Cc2ccccc2Cn2cccn2)C(=O)[C@H]2CCCN2C1=O,-7.34
CCCC[C@@H]1NC(=O)[C@H](CC(C)C)N(C)C(=O)CN(CCCc2cnn(C)c2)C(=O)[C@H](C)NC(=O)CN(CCC)C(=O)[C@H]2CCCN2C1=O,-6.86
CCCC[C@@H]1NC(=O)[C@H](CC(C)C)N(C)C(=O)CN(CC2CCOCC2)C(=O)[C@H](CC(C)C)NC(=O)CN(CCC)C(=O)[C@H]2CCCN2C1=O,-5.34
CCCC[C@@H]1NC(=O)[C@H](CC(C)C)N(C)C(=O)CN(CCCc2cnn(C)c2)C(=O)[C@H](Cc2ccc3ccccc3c2)NC(=O)CN(CCCOC(C)C)C(=O)[C@H]2CCCN2C1=O,-5.44

Data: CycPeptMPDB; original report Furukawa et al. 2016, doi:10.1021/acs.jmedchem.6b01246.